Reference: patent US11746124B2, “Chemoselective thiol-conjugation with alkene or alkyne-phosphonamidates” (FORSCHUNGSVERBUND BERLIN E.V., priority 2016, dated 2023)

Key:
Assay in all cases: AFC immunostaining of fixed cells, confocal microscopy
Type in all cases: cell-based
Conditions in all cases: AFC 5 μg/mL, 1 h at RT
[1] = test system: Her2-non overexpressing cell line MDAMB468
Protocol: (§1) In a similar manner, as described above under “Staudinger-induced thiol addition with alkynyl-phosphonites for the generation of Antibody Drug Conjugates (ADCs)” the fluorescent dye Cy5 was conjugated to Trastuzumab to generate an antibody-fluorophore conjugate. Synthesis of Cy5-O-ethyl-P-alkynyl-phosphonamidate was conducted as described above under “Introduction of the alkyne-phosphonamidate moiety by generic building blocks via an amide bond”. The obtained Phosphonamidate-AFC conjugates were evaluated by immunostaining of two different Her2-overexpressing cell lines BT474 and SKBR3. The Her2-non overexpressing cell line MDAMB468 was used as a control to proof Her2 selectivity.
(§2) BT474, SKBR3 and MDAMB468 were seeded on sterile cover slips and incubated ON at 37° C., 5% CO2 for cell attachment. Cells were washed three times with 1×PBS prior to fixation for 10 min in 1×PBS/4% PFA (formaldehyde). Fixation was stopped by the addition of an equal volume 1×PBST (PBS+0.05% Tween20) followed by two more washes with PBST. AFCs were added to a final concentration of 5 μg/mL and incubated for 1 h at RT. Unbound AFC was removed by three washes with PBS.
(§3) Images were acquired on a Leica SP5 confocal microscopy system equipped with a 63×1.40 Oil immersion objective. Laserlines 405 nm and 594 nm were used in combination with standard DAPI and Cy5 filter settings. Image processing was carried out with ImageJ 1.5.1 h software extended by the Fiji processing package.

[2] = test system: Her2-overexpressing cell line SKBR3
Protocol: as §1, §2, §3

[3] = test system: Her2-overexpressing cell line BT474
Protocol: as §1, §2, §3

## Trastuzumab-Amidate-Cy5
[1]
  immunostaining of fixed cells: no staining
[2]
  immunostaining of fixed cells: clear localization to the plasma membrane
[3]
  immunostaining of fixed cells: clear localization to the plasma membrane
